The record followed here is patent publication US8563258B2, “Allergy test based on flow cytometric analysis” (Buhlmann Laboratories AG, priority 2007, dated 2013).

The assay relates to basophils. The conditions noted are these: 0.2 to 200 ng/ml tested (final dilution); Protocol 1.

B1: IL-3: interleukin 3, basophil priming reagent in the Stimulation Buffer (protein, UniProt P08700 20-152, looked up)
Interleukin-3: APMTQTTPLKTSWVNCSNMIDEIITHLKQPPLPLLDFNNLNGEDQDILMENNLRRPNLEAFNRAVKSLQNASAIESILKNLLPCLPLATAAPTRHPIHIKDGDWNEFRRKLTFYLKTLENAQAQQTTLSLAIF
Consider B1, for which the “IL-3 concentration giving optimum stimulation (CD63 expression)” value came to 2 ng/mL.
